Data: patent publication US9169279B2, “Crystallization method and bioavailability” (THAR PHARMACEUTICALS, INC., priority 2009, dated 2015)

Assay: Rat PK study: zoledronic acid in plasma after IV, oral gavage or intraduodenal dosing (LC/MS/MS)

Zoledronic Acid, Sodium Zoledronic Salt, and Water Complex
Average plasma concentration of 3 rats (ID (intraduodenal) 5 mg/kg zoledronic acid equivalent, PEG 400, Time 0.25 hour): 39.99 ng/mL | Average plasma concentration of 3 rats (ID (intraduodenal) 5 mg/kg zoledronic acid equivalent, PEG 400, Time 1 hour): 18.50 ng/mL | Average plasma concentration of 3 rats (ID (intraduodenal) 5 mg/kg zoledronic acid equivalent, PEG 400, Time 4 hour): 0.71 ng/mL | Average plasma concentration of 3 rats (ID (intraduodenal) 5 mg/kg zoledronic acid equivalent, PEG 400, Time 8 hour): 0.00 ng/mL | Average plasma concentration of 3 rats (ID (intraduodenal) 5 mg/kg zoledronic acid equivalent, PEG 400, Time 24 hour): 0.00 ng/mL | Average plasma concentration of 3 rats (PO 5 mg/kg zoledronic acid equivalent, PEG 400, Time 0.25 hour): 278.47 ng/mL | Average plasma concentration of 3 rats (PO 5 mg/kg zoledronic acid equivalent, PEG 400, Time 0.5 hour): 280.20 ng/mL | Average plasma concentration of 3 rats (PO 5 mg/kg zoledronic acid equivalent, PEG 400, Time 1 hour): 171.59 ng/mL | Average plasma concentration of 3 rats (PO 5 mg/kg zoledronic acid equivalent, PEG 400, Time 4 hour): 13.42 ng/mL | Average plasma concentration of 3 rats (PO 5 mg/kg zoledronic acid equivalent, PEG 400, Time 8 hour): 1.78 ng/mL | Average plasma concentration of 3 rats (PO 5 mg/kg zoledronic acid equivalent, PEG 400, Time 24 hour): 0.00 ng/mL
